Laboratory results: patent publication US10513559B2, “Amatoxin-armed therapeutic cell surface binding components designed for tumour therapy” (Deutsches Krebsforschungszentrum, priority 2009, dated 2019)

Columns and labels:
Type in all cases: cell-based
Settings in all cases: 72 h and 120 h
[1] = system: SKOV-3 (Her2/neu positive); assay: in vitro BrdU incorporation, SKOV-3
Method: (§1) Inhibition of cell growth by amanitin-Herceptin conjugates was determined by in vitro BrdU incorporation as described in Current Protocols in Immunology 1 (see chapter 7.10. Coligan, J. E. et al., eds.) John-Wiley & Sons, New York). […] (See FIGS. 11A to 11D). The indicated molar concentration is indicated on the basis of the entire amanitin comprised in the respective conjugate.

[2] = system: MDA-MB231 (Her2/neu negative); assay: in vitro BrdU incorporation, MDA-MB231
Method: as §1

[3] = system: NCI-N87 (Her2/neu positive); assay: in vitro BrdU incorporation, NCI-N87
Method: as §1

[4] = system: SK-BR-3 (Her2/neu positive); assay: in vitro BrdU incorporation, SK-BR-3
Method: as §1

Measured: cytotoxicity (in words)

Herceptin: recombinant humanized IgG1 kappa monoclonal antibody binding the extracellular domain of HER2
no cytotoxicity: all assays above
